## Measured affinities in a library of Ab-14 heavy chain variants

Target peptide (SARS-CoV-2 spike, HR2 region): PDVDLGDISGINAS

Each scFv is VH, the linker GGGGSGGGGSGGGGS, VL, as in the parent Ab-14, and differs from it in the CDRs of the heavy chain only.
VH: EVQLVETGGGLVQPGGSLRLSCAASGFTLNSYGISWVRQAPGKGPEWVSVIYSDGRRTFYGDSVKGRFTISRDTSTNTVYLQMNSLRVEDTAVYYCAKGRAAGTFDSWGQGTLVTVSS
VL: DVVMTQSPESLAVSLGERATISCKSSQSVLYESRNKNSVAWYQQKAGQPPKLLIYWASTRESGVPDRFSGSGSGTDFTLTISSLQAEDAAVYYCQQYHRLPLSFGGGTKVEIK

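Variants in AAYL49 differ from the parent at up to three CDR positions; double and triple changes were sampled at random. The scFvs were displayed on barcoded MATa yeast, the peptide on MATalpha yeast. Mating (16 h, 30 °C) was followed by selection of diploids and sequencing of their barcodes. A regression on co-assayed BCL2-family reference pairs converts the normalised counts of each replicate to an apparent Kd. Mating was done three times.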

Substitutions are numbered in sequence along the VH above, starting at 1 (not Kabat).
Every variant below is changed at Y60 of the VH (sequential numbering).
Kd is apparent (estimated from mating counts) and averaged on the log scale over replicates with a signal. Smaller is tighter.
An entry "nd" has no value in the source: the pair was not observed among the diploids in any replicate. This suggests poor binding but is not conclusive.
Parent in this assay: reference entry 4.4 nM, copy in this library 13 µM (one replicate of three).
Three control strains display no target. For library AAYL49, 15% of the pairings with them gave a signal, with a median of 11 µM and one signal in twenty below 680 nM, so weak values seen in few replicates may be background. For each scFv, signals with the empty controls are counted beside the result.

* Y60E/G99A/R100V -> nd (0 of 3 replicates; controls 0 of 9)
* S31I/F59Y/Y60D -> nd (0 of 3 replicates; controls 1 of 9)
* G26T/Y60R/K65C -> nd (0 of 3 replicates; controls 2 of 9)
* N30E/I34D/Y60P -> nd (0 of 3 replicates; controls 1 of 9)
* Y60F/K65I -> nd (0 of 3 replicates; controls 0 of 9)
* R56Q/R57W/Y60D -> nd (0 of 3 replicates; controls 1 of 9)
* Y60C/G61A/G99D -> nd (0 of 3 replicates; controls 1 of 9)
* N30S/F59K/Y60P -> nd (0 of 3 replicates; controls 0 of 9)
* I34K/D54F/Y60W -> nd (0 of 3 replicates; controls 1 of 9)
* Y32T/I34C/Y60E -> 2.1 mM (1 of 3 replicates; controls 1 of 9)
* T28P/L29T/Y60A -> nd (0 of 3 replicates; controls 3 of 9)
* N30W/Y60P/T104D -> 9.4 µM (1 of 3 replicates; controls 4 of 9)
* Y60Q/G61Q/S107K -> 320 nM (3 of 3 replicates; controls 0 of 9)
* G26V/Y60D/S63D -> 14 µM (1 of 3 replicates; controls 0 of 9)
* F27K/F59P/Y60M -> 13 µM (1 of 3 replicates; controls 3 of 9)
* Y60F -> 140 nM (3 of 3 replicates; controls 1 of 9)
* L29E/Y60F/A101R -> 250 µM (1 of 3 replicates; controls 4 of 9)
* S31N/V50T/Y60M -> 24 µM (2 of 3 replicates; controls 3 of 9)
* F59D/Y60G/G103S -> nd (0 of 3 replicates; controls 0 of 9)
* S31K/Y60R/G103A -> 4.5 µM (1 of 3 replicates; controls 5 of 9)
* I34G/Y60E/G103M -> 200 µM (1 of 3 replicates; controls 2 of 9)
* Y60M/A101E/F105T -> 7.8 µM (2 of 3 replicates; controls 1 of 9)
* G55R/Y60K/R100G -> nd (0 of 3 replicates; controls 0 of 9)
* L29H/V50D/Y60L -> nd (0 of 3 replicates; controls 0 of 9)
* T28M/Y60D -> 4.6 µM (1 of 3 replicates; controls 0 of 9)
* Y32H/Y60H/G99R -> 45 µM (1 of 3 replicates; controls 3 of 9)
* G33W/I34T/Y60G -> 1.2 µM (2 of 3 replicates; controls 2 of 9)
* T28L/G33Y/Y60V -> 1.4 µM (1 of 3 replicates; controls 1 of 9)
* Y60H/D62P/S63C -> 16 µM (3 of 3 replicates; controls 4 of 9)
* S35C/R56W/Y60R -> nd (0 of 3 replicates; controls 2 of 9)
* S31Y/S35A/Y60Q -> nd (0 of 3 replicates; controls 0 of 9)
* Y32C/Y60Q -> nd (0 of 3 replicates; controls 0 of 9)
* F27L/Y60L/V64N -> 5.4 µM (1 of 3 replicates; controls 1 of 9)
* Y32V/G55K/Y60S -> 1.3 µM (1 of 3 replicates; controls 1 of 9)
* V50L/T58P/Y60W -> 300 µM (2 of 3 replicates; controls 4 of 9)
* S53Y/Y60R/R100A -> 84 µM (1 of 3 replicates; controls 4 of 9)
* G33Y/Y60H/S107M -> 1.3 µM (1 of 3 replicates; controls 1 of 9)
* Y60D/G99D/F105A -> 1.1 µM (1 of 3 replicates; controls 2 of 9)

Excerpt, the first 6 entries:

{"changes": "Y60E/G99A/R100V", "apparent Kd": "nd", "seen in": "0 of 3", "empty controls": "0 of 9"}
{"changes": "S31I/F59Y/Y60D", "apparent Kd": "nd", "seen in": "0 of 3", "empty controls": "1 of 9"}
{"changes": "G26T/Y60R/K65C", "apparent Kd": "nd", "seen in": "0 of 3", "empty controls": "2 of 9"}
{"changes": "N30E/I34D/Y60P", "apparent Kd": "nd", "seen in": "0 of 3", "empty controls": "1 of 9"}
{"changes": "Y60F/K65I", "apparent Kd": "nd", "seen in": "0 of 3", "empty controls": "0 of 9"}
{"changes": "R56Q/R57W/Y60D", "apparent Kd": "nd", "seen in": "0 of 3", "empty controls": "1 of 9"}

The measurements come from Engelhart et al. 2022 (doi:10.1038/s41597-022-01779-4) through the FLAb antibody collection.